# Biological target: Cannabinoid receptor 1 (Homo sapiens, UniProt P21554)
# The chains behind the UniProt entries cited, without tags or fusion partners.
# UniProt P21554, whole entry: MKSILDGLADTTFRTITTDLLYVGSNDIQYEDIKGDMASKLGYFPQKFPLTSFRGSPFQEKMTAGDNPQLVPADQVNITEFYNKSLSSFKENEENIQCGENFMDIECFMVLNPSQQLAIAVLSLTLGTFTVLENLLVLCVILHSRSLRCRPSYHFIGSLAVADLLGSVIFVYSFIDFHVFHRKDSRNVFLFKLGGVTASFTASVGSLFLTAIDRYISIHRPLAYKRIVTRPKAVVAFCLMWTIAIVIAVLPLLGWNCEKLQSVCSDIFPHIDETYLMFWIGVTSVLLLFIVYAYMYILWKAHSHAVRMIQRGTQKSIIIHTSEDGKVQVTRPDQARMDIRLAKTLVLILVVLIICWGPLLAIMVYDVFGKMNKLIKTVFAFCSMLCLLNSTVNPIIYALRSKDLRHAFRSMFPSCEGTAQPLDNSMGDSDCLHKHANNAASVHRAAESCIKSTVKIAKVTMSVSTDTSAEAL
# Assay: Binding affinity at the CB1 receptor
structure (smiles),measurement,value
CC(=O)Nc1c(C(C)=O)c(=O)n(C)c2nc(-c3ccc(Cl)cc3Cl)c(-c3ccc(Cl)cc3)cc12 [NAPHTHYRIDINONE],IC50,7.5 nM

# From ChEMBL document CHEMBL1149424, “Synthesis of functionalized 1,8-naphthyridinones and their evaluation as novel, orally active CB1 receptor inverse agonists” (Bioorg Med Chem Lett, 2006)
